Article PMC7101055 (ACS Chemical Neuroscience, 2020)

Amino acid sequences for entries named in this document (tags omitted).
UniProt P61168, whole entry: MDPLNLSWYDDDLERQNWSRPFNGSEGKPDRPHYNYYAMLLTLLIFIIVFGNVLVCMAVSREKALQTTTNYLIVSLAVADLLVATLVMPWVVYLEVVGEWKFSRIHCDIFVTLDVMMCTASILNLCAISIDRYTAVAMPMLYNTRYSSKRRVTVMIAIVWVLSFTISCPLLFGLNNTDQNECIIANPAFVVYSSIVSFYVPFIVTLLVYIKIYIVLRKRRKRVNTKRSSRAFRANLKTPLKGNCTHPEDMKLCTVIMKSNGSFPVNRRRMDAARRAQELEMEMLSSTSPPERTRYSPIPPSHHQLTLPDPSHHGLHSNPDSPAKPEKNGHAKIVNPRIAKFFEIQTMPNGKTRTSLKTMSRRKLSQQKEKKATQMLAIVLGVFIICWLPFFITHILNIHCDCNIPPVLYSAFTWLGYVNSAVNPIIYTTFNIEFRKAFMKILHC

Target: D2 receptors on substantia nigra dopamine neurons (Mus musculus, UniProt P61168)
Assay type: cell-based

SMILES: COC(=O)[C@H]1[C@@H](OC(=O)c2ccccc2)C[C@@H]2CC[C@H]1N2C [cocaine]
- effect on CyHQ-O-DA flash response (cocaine (3 μM) added to CyHQ-O-DA (150 μM)): increased in amplitude and duration
- current produced by cocaine itself (due to spontaneously released dopamine no longer transported): produced a small current
